Measured values reported in ChEMBL document CHEMBL6134818, “Development of 3-arylaminothiophenic-2-carboxylic acid derivatives as new FTO inhibitors showing potent antileukemia activities” (Eur J Med Chem, 2025).

By UniProt entry, the sequences of proteins in these tests, tags left out.
UniProt Q9C0B1, whole entry, looked up: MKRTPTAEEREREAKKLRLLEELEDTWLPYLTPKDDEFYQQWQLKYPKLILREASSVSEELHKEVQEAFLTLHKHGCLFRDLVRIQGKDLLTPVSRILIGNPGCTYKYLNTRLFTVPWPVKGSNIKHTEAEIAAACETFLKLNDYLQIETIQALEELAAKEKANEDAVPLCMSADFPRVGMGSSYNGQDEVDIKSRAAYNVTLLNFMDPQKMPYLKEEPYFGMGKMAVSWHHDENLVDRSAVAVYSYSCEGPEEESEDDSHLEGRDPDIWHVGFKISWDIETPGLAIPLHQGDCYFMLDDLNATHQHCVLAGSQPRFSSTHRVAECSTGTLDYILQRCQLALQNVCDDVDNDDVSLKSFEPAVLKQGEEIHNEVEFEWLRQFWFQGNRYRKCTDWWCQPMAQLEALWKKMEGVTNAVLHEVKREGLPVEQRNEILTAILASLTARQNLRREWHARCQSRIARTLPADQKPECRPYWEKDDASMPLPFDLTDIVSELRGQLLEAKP

Biological target: Alpha-ketoglutarate-dependent dioxygenase FTO (Homo sapiens, UniProt Q9C0B1)

ΔTm: 2 °C
Compound: Cc1n[nH]c(C)c1-c1cc(Cl)c(Nc2ccsc2C(=O)O)c(Cl)c1
